# Results taken from PMC9060023 (Skin Health and Disease, 2021).
# Sequences of proteins named here, by UniProt entry; tags and fusion partners are left off. A change or cut given only in a name is not applied to a line headed by its entry.
# UniProt Q01727: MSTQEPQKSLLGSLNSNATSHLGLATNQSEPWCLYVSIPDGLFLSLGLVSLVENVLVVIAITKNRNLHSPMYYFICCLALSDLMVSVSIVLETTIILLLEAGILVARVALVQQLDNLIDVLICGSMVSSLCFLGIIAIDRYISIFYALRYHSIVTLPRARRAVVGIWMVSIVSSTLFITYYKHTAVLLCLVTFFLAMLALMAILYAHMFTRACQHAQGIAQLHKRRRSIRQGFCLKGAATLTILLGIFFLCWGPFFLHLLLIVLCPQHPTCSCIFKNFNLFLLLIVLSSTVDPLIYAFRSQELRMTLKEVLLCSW
# Assays:
# mouse MC1R (mMC1R) = target: T1, mouse MC1R (mMC1R) (Mus musculus, UniProt Q01727); test: Cyclic AMP assay in HEK293 cells stably expressing mMC1R; assay type: cell-based; conditions: mMC1R on HEK293; geometric mean of three experiments; read-out: EC50 agonistic activity (cAMP)
# T1 construct: expressed in transfected cells; host or cells: HEK293 (Jump-In TI Gateway targeted integration, SV40 promoter)
# [1] = test system: B16F1 mouse melanoma cell line; test: Melanin production in B16F1 cell line; assay type: cell-based; conditions: B16F1 cells, 3 days
# Description: Dulbecco's modified Eagle medium without phenol red (Life Technologies), containing 10% foetal bovine serum (Gibco) and 100 U/ml of penicillin‐streptomycin (Gibco), was used as the assay medium. Cells (1.5 × 10^4) were seeded into a 96‐well culture plate. Serially diluted test substances were added to the plate and incubated at 37°C in a humidified 5% CO2 incubator for 3 days. The melanin concentration in the supernatant was determined from the optical density (405 nm) measured by VersaMax^TM microplate reader (Molecular Devises) using a standard curve of eumelanin (Sigma‐Aldrich, M8631).
# [2] = test system: 5 human melanoma cell lines; conditions: 5 human melanoma cell lines in vitro; data not shown
compound,measurement,setting,value
"COC[C@H]1CN(C(=O)[C@]2(F)CN(C3CCCC3)C[C@H]2c2ccc(OC)cc2)C[C@@H]1c1ccc(C(F)(F)F)cc1N1CCC(C(=O)O)CC1 [MT‐7117, dersimelagon]",EC50,mouse MC1R (mMC1R),1.14 nM
same,Concentrations that significantly increased eumelanin production,[1],≥ 3 pmol/L
same,Effect on cell proliferation,[2],no effect
